Reference: patent EP4840849A1, “BIPHENYL COMPOUND, PREPARATION METHOD THEREFOR, AND INTERMEDIATE, PHARMACEUTICAL COMPOSITION AND USE THEREOF” (dated 2026)

By UniProt entry, the sequences of proteins in these tests, tags left out.
UniProt P10276, whole entry: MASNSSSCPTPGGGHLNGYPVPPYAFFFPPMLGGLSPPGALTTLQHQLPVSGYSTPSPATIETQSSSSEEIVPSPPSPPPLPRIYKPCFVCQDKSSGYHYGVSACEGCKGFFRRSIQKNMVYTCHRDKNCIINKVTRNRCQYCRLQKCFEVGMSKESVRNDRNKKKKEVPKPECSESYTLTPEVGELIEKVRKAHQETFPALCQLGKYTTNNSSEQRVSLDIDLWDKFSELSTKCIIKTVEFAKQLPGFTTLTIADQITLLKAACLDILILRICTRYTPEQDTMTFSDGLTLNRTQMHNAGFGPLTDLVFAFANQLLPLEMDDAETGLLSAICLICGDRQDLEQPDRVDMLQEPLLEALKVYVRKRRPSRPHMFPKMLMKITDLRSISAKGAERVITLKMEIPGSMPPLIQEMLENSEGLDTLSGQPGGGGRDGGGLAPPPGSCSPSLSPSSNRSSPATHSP
UniProt P13631, whole entry: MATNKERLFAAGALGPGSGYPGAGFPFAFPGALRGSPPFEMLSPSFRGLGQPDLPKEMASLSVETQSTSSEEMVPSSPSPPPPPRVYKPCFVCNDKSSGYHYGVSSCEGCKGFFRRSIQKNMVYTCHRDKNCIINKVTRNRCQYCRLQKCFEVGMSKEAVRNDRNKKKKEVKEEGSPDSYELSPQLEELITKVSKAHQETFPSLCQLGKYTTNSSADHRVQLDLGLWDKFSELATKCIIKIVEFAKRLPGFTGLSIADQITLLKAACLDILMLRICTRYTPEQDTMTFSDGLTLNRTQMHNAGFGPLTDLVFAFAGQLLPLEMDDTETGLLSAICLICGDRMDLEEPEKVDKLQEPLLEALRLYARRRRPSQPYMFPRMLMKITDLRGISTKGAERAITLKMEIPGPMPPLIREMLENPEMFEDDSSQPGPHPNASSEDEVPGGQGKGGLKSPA
UniProt P10826, whole entry: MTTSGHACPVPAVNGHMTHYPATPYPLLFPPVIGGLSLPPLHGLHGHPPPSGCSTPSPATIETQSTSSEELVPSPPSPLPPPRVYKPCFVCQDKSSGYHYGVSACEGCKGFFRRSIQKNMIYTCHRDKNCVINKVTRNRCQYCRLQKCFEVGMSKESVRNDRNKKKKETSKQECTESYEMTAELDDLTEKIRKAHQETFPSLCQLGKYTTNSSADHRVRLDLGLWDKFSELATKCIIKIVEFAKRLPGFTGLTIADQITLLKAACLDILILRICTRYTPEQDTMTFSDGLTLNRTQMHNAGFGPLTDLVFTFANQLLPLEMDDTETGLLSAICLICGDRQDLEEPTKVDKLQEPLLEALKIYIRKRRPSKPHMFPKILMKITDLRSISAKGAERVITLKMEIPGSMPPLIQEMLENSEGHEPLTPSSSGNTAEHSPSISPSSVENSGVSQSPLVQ

Assays:
RARα = RARα (Homo sapiens, UniProt P10276); test: HEK-293 RARα luciferase reporter gene agonist assay; conditions: for α/γ ratio: ratio of RARα EC50 to RARγ EC50; for pEC50: read-out: RAR α EC50, HEK293 cells transfected with pBIND-RARα and pG5 Luc, 24 h treatment, EC50 > maximum test concentration when maximum activation rate is less than 50% of retinoic acid Max well
RARγ = RARγ (Homo sapiens, UniProt P13631); test: HEK-293 RARγ luciferase reporter gene agonist assay; conditions: read-out: RAR γ EC50; HEK293 cells transfected with pBIND-RARγ and pG5 Luc, 24 h treatment
RARβ = RARβ (Homo sapiens, UniProt P10826); test: HEK-293 RARβ luciferase reporter gene agonist assay; conditions: for β/γ ratio: ratio of RARβ EC50 to RARγ EC50; for pEC50: read-out: RAR β EC50, HEK293 cells transfected with pBIND-RARβ and pG5 Luc, 24 h treatment, EC50 > maximum test concentration when maximum activation rate is less than 50% of retinoic acid Max well

Row | Structure (SMILES) | α/γ ratio (RARα) | pEC50 (RARα) | pEC50 (RARγ) | β/γ ratio (RARβ) | pEC50 (RARβ)
1 | CC1(C)C[C@H]2CCCN2c2ccc(-c3cc(-c4ccc(C(=O)O)cc4)ccc3OCCO)cc21 | >333.3 | < 5.22 | 7.74 | >333.3 | < 5.22
2 | CCN1CCC(C)(C)c2cc(-c3cc(-c4ccc(C(=O)O)cc4)ccc3OCCO)ccc21 | >2643.2 | < 5.22 | 8.64 | >2643.2 | < 5.22
3 | CC1(C)C[C@@H]2CCCN2c2ccc(-c3cc(-c4ccc(C(=O)O)cc4)ccc3OCCO)cc21 | >398.9 | < 5.22 | 7.82 | >398.9 | < 5.22
4 | C[C@H]1CC(C)(C)c2cc(-c3cc(-c4ccc(C(=O)O)cc4)ccc3OCCO)ccc2N1C | >1244.8 | < 5.22 | 8.32 | >1244.8 | < 5.22
5 | CN1CCC(C)(C)c2cc(-c3cc(-c4ccc(C(=O)O)cc4)ccc3OCCO)ccc21 | >16216.2 | < 5.22 | 9.43 | >16216.2 | < 5.22

pEC50: −log10 of the molar value.
